AlphaSeq binding of Ab-14 light chain variants to a spike HR2 peptide

Binding partner: SARS-CoV-2 spike HR2 peptide, sequence PDVDLGDISGINAS.

Parent scFv Ab-14: VH joined to VL by the linker GGGGSGGGGSGGGGS. Changes lie in the light chain CDRs alone.
VH: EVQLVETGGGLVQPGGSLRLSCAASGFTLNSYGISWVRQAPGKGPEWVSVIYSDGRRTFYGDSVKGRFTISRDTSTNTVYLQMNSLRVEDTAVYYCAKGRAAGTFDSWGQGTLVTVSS
VL: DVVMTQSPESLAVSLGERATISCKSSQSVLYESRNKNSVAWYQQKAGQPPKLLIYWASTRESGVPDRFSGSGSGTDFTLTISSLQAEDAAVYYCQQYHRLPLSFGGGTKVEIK

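Designed CDR sequences, proposed from the first random library and measured here. Their group label is 14L_GP_Gibbs (GP: Gaussian process model; Gibbs: Gibbs sampling; a sequence that several methods proposed may carry one label only). The scFvs were displayed on barcoded MATa yeast, the peptide on MATalpha yeast. Binding brings cells together so that they mate, and sequencing counts the barcode pairs among the diploids. Read counts were normalised to the haploid input and turned into Kd by a linear fit to BCL2-family pairs of known affinity, for each replicate. Each pool was mated in six replicate cultures.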

Variants are written as CDR1, CDR2 and CDR3 of the light chain (limits as in the source). Parent: KSSQSVLYESRNKNSVA, WASTRES, QQYHRLPLS.
The read-out is the apparent dissociation constant on a log10 scale (nM): the lower, the stronger.
Replicates are averaged; those with no signal do not enter the mean.
As a blank, each scFv also met three strains without target: over all light chain designs, 4% of these pairings were detected, typically at 2.64 and seldom below 1.59. For each scFv, signals with the empty controls are counted beside the result.
Values of this round are not directly comparable with the first-round values of the same sequences.
The authors' rule: three or more of the six replicates give a measured affinity, fewer mean a poor binder.

Variant KSSQSVRMEELNSNSVA, HASVREQ, QQYHRLPLS gave 0.40, 0.24, 0.10, 0.21, 0.15, 0.45 (mean 0.26; controls 1 of 18).
Variant RLSQSVLQEERNDNSVA, SASTRCS, QQYHRLPLS gave 0.29, 0.48, 0.41, 0.10, 0.47, 0.71 (mean 0.41; controls 0 of 18).
Variant KLDPSHLGESRNKNAVA, QASTREE, QQYHRLPLS gave 0.17, -0.08, -0.13, -0.26, -0.10, 0.07 (mean -0.06; controls 2 of 18).
Variant KLQWSVLDEERNDNSVA, WASHRES, QQYHRLPLS gave 2.32, 1.81, 2.01, 1.97, 1.83, 1.93 (mean 1.98; controls 0 of 18).
Variant KVSQWWLYESRMKNAVA, NASTRED, QQYHRLPLS gave 0.36, 0.19, -0.06, -0.10, -0.08, 0.31 (mean 0.10; controls 3 of 18).
Variant KLSQSVEYESRLKNSVA, NASQRLE, QQYHRLPLS gave -0.22, 0.22, -0.07, -0.08, 0.00, -0.07 (mean -0.04; controls 2 of 18).
Variant KASPSEEYESRNKNSVA, NASYREE, QQYHRLPLS gave 0.50, 0.46, 0.03, 0.22, 0.44, 0.40 (mean 0.34; controls 0 of 18).
Variant KMSQSVEVLSRNKNSVA, NASTREM, QQYHRLPLS gave 1.66, 1.21, 0.53, 0.95, 0.82, 1.78 (mean 1.16; controls 0 of 18).
Variant KFQQMVMQGDRNKNSVA, QASTRLQ, QQYHRLPLS gave 0.78, 0.52, 0.39, 0.33, 0.42, 0.64 (mean 0.51; controls 1 of 18).
Variant KVWQSVLGQERNKMSVA, QASTRES, QQYHRLPLS gave 0.48, 0.70, 0.42, 0.38, 0.35, 0.45 (mean 0.46; controls 0 of 18).
Variant KCSQSVDYLDRNMNNVA, NASTRES, QDYHRLPLS gave -0.50, -0.65, -0.63, -0.70, -0.66, -0.49 (mean -0.60; controls 0 of 18).
Variant KVSQSWLYQSRNSNAVA, EASQREQ, QDYHRLPLS gave 0.87, 0.96, 0.70, 0.84, 0.74, 0.87 (mean 0.83; controls 0 of 18).
Variant KVSPSQLYWSRNKNQVA, QANTRET, QQYHRLPLS gave 1.09, 0.96, 1.04, 1.36, 2.15, 2.06 (mean 1.44; controls 2 of 18).
Variant KIFQSVLYESRQKNSVA, NASDRMS, QQYHRLPLS gave 0.57, -0.05, -0.21, 0.24, 0.34, 0.86 (mean 0.29; controls 0 of 18).
Variant KLSQSEEYESRQFNSVA, SASQRNL, QQYHRLPLS gave 0.51, 0.66, 0.32, -0.17, 0.39, 0.71 (mean 0.40; controls 2 of 18).
Variant KLEGSKEYLSRWKNSVA, HASVREV, QQYHRLPLS gave 0.33, 0.64, 0.55, 0.55, 0.46, 0.58 (mean 0.52; controls 1 of 18).
Variant KISQQVLMESRNMNSVA, NASTREE, QQYHRLPLS gave 0.96, 0.59, 1.67, 1.27, 1.34, 1.22 (mean 1.18; controls 1 of 18).
Variant KLDQSELYQSRNKQSVA, NASQRES, QQYHRLPLS gave 0.13, 0.28, -0.04, -0.03, 0.10, 0.08 (mean 0.09; controls 1 of 18).
Variant KFMYSVLYEERNQNSVA, NASQRES, QQYHRLPLS gave 1.22, 0.89, 1.20, 1.35, 1.15, 1.27 (mean 1.18; controls 0 of 18).
Variant KVDQDWDYESRNKNSVA, NASTRER, QQYHRLPLS gave 0.02, -0.10, -0.19, -0.31, -0.01, -0.11 (mean -0.12; controls 3 of 18).
Variant KVMQSVGQGQRNKNSVA, EASTRER, QQYHRLPLS gave 0.30, 0.19, 0.19, 0.29, 0.20, 0.36 (mean 0.25; controls 2 of 18).
Variant KVDQSEWCESRWKNSVA, SASTRIS, QQYHRLPLS gave 1.10, 0.91, 0.92, 1.06, 0.88, 1.05 (mean 0.99; controls 2 of 18).
Variant KLSNMYEYESRWKNSVA, NASTREL, QQYHRLPLS gave 0.18, 0.15, 0.12, 0.01, 0.07, 0.39 (mean 0.15; controls 1 of 18).
Variant HSSWGVDDESRNDNSVA, KASTRES, QQYHRLPLS gave 0.18, -0.14, -0.04, 0.02, -0.10, 0.22 (mean 0.02; controls 0 of 18).
Variant KFSQGNLYEDRNQNSVA, NASQRLQ, QDYHRLPLS gave 0.60, 1.04, 0.92, 0.28, 0.86, 0.33 (mean 0.67; controls 0 of 18).
Variant KLMTSHLYESRMANNVA, AASKREE, QQYHRLPLS gave 0.52, 0.39, 0.43, 0.35, 0.33, 0.69 (mean 0.45; controls 2 of 18).
Variant LWSQSELLESRNHNSVA, DASTRMD, QQYHRLPLS gave 0.03, -0.02, 0.11, -0.21, -0.10, 0.23 (mean 0.01; controls 2 of 18).
Variant KYQQSEPTESRNKNSVA, NASTRES, QQYHQLPLS gave 0.25, 0.13, -0.15, -0.08, 0.72, 0.45 (mean 0.22; controls 0 of 18).
Variant KIDQWELGESVNKNSVA, NASTRME, QQYHRLPLS gave 0.52, 0.09, -0.15, -0.22, -0.06, 0.27 (mean 0.07; controls 0 of 18).
Variant KLFQSNEYESRNDNSVA, NASQREW, QQYHRLPLS gave 0.27, 0.81, 0.13, 0.38, 0.57, 0.23 (mean 0.40; controls 1 of 18).
Variant KVSQSVMGGSRNKNSVA, NASQREQ, QQYHRLPLS gave -0.03, -0.11, -0.37, -0.44, -0.26, 0.01 (mean -0.20; controls 2 of 18).
Variant KLSQQDEYESRNKNSVA, QASVREQ, QQYHRLPLS gave 0.03, -0.04, -0.21, -0.23, -0.14, 0.11 (mean -0.08; controls 1 of 18).

Extract of 2 entries:

CDR-L1	CDR-L2	CDR-L3	replicates, log10 nM	log10 Kd (nM), mean	control signals
RLSQSVLQEERNDNSVA	SASTRCS	QQYHRLPLS	0.29, 0.48, 0.41, 0.10, 0.47, 0.71	0.41	0/18
KASPSEEYESRNKNSVA	NASYREE	QQYHRLPLS	0.50, 0.46, 0.03, 0.22, 0.44, 0.40	0.34	0/18

Reference: Li et al. 2023, doi:10.1038/s41467-023-39022-2. File: FLAb, binding data.